{
  "sequences": {"note": "Chains of the proteins cited; added tags and fusions are not shown. Residues count along the entry.", "UniProt O95971, 25-159": "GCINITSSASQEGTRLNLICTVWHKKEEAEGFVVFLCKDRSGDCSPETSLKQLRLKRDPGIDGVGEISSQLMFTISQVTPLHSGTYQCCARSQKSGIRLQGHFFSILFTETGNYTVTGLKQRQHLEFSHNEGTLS"},
  "source": "patent US20210122788A1",
  "key": {"[1]": {"molecular_target": "human BTLA, wild-type, on cells (human) (UniProt Q7Z6A9)", "assay": "FACS binding to EL4 cells", "details": "Fc fusion"}, "[2]": {"molecular_target": "human CD160 on cells (human) (UniProt O95971)", "assay": "FACS binding to EL4 cells", "details": "Fc fusion"}},
  "data": [
    {"substance": "human CMV UL144 Fc (Fiala strain)", "values": [
      {"measurement": "EC50", "setting": "[1]", "result": 0.66, "unit": "mg/L"},
      {"measurement": "EC50", "setting": "[2]", "result": "> 200", "unit": "mg/L"}
    ]}
  ]
}
